This is a selection; strong and weak results do not stand in their true shares. Inconclusive results are not listed. Where a call stands in place of a potency, no number is given. The source made the active and inactive calls. The call rests on the fitted dose curve; in most records, active means well fitted cell-killing curve with a large enough effect; inconclusive means small, poorly fitted or top-dose-only effect, or effect the other way; inactive means no such curve, though single readings can be large or run the other way.

Drawing on PubChem BioAssay AID651635 (National Center for Advancing Translational Sciences (NCATS), 2012), this text covers Potency for 30 molecules.
Potency means the concentration at half of the fitted maximal effect.

The test in a line: Viability Counterscreen for Primary qHTS for Inhibitors of ATXN expression. Further: nearly all actives have a fitted effect of over 40% in size. To be noted: S2 cells (HEK-293 line with an ATXN2-luciferase reporter) viability, CellTiter-Fluor protease fluorescence, 24 h; series mostly up to 56.7 µM.
For the molecule `CN(C(=O)Cc1ccc(Cl)c(Cl)c1)[C@H]1CC[C@@]2(CCCO2)C[C@@H]1N1CCCC1`, the Potency result is “inactive”.

`NC(=O)Nc1ccc([As](=O)(O)O)cc1`: the Potency result was “inactive”. The entry for `Nc1ccccc1[As](=O)(O)c1ccccc1` is “inactive”. The entry for `O=C(O)COc1ccc([As](=O)(O)O)cc1[N+](=O)[O-]` is “inactive”; for `CCOP1(=S)c2c(C)nn(CCC#N)c2N=C(c2ccccc2F)N1C` (stereo not given) it is “inactive”; for `O=P(Nc1nccs1)(Oc1ccccc1)Oc1ccccc1` it is “inactive”. Consider `O=P(Nc1nccs1)(c1ccccc1)c1nc2ccccc2s1` (stereo not given), for which the Potency result is “inactive”.

As to `CS(=O)(=O)c1cc([N+](=O)[O-])c2no[n+]([O-])c2c1`, the Potency entry is “inactive”.

As for `Nc1cccc([As](=O)(O)c2ccccc2)c1`, the Potency result is “inactive”. The entry for `O=[As](O)(c1cccs1)c1cccs1` is “inactive”; for `Cc1ccc(OCC(=O)OC2CN3CCC2CC3)cc1` (stereo not given) it is “inactive”. The entry for `O=P1(Nc2ccc(Br)cn2)COc2ccccc2OC1` is “inactive”; for `NS(=O)(=O)c1cccc(NC(=O)COC(=O)C(O)(c2ccccc2)c2ccccc2)c1` it is “inactive”.

For the molecule `O=P1(Nc2ncccn2)COc2ccccc2OC1`, the Potency entry is “inactive”. The entry for `CN(C)C1(CNC(=O)c2ccc(S(C)(=O)=O)cc2)CCCCC1` is “inactive”. On to `O=C(/C=C/c1ccccc1)OC1CN2CCC1CC2` (stereo not given), for which the Potency entry is “inactive”.

As to `CCCC1OP(=O)(Nc2ccccc2)OCC1CC` (stereo not given), the Potency result was “inactive”. As to `Cc1nn(-c2ccccc2)c2c1P(=O)(N1CCOCC1)N(C)C(c1ccccc1)=N2` (stereo not given), the Potency result was “inactive”. The entry for `CC1CCC(C(C)C)C(OP(=O)(Nc2ccccn2)c2ccccc2)C1` (stereo not given) is “inactive”. The entry for `CC(C)/C=N\N=C(\N)N[N+](=O)[O-]` is “inactive”. The entry for `CN(C(=O)Cc1ccc(Cl)c(Cl)c1)[C@@H]1CCCC[C@H]1N1CCCC1` is “inactive”; for `CC1(CBr)Cn2c(nc3ccccc3c2=O)S1` (stereo not given) it is “inactive”.

For the molecule `COc1ccccc1CNC(=O)COC(=O)C(O)(c1ccccc1)c1ccccc1`, the Potency entry is “inactive”. The entry for `O=P1(N(CCCl)CCCl)NCCC(C(F)(F)F)O1` (stereo not given) is “inactive”.

Regarding `CC(C)(C)C(=O)NC(Sc1ncccn1)C(Cl)(Cl)Cl` (stereo not given), the Potency entry is “inactive”.

For `O=P1(Nc2ccccn2)COc2ccccc2OC1`, the Potency entry is “inactive”. The figure for `CCC1=CC2Cc3nc4ccc(Cl)cc4c(N)c3C(C1)C2` (stereo not given) is active: 20 µM; for `CCOP(=O)(NC(=NC(C)c1ccccc1)NC(C)c1ccccc1)OCC` (stereo not given) it is “inactive”; for `CCOP(=O)(Nc1ccc(C)cn1)OCC` it is “inactive”.

`CN(CCCl)Cc1cc(Cl)c(NC2=NCCN2)c(Cl)c1`: the Potency result is “inactive”.
